# High-throughput results as filed in PubChem BioAssay.
# Hits are enriched below; roughly 1.1% of the tested compounds scored in any of these assays.
# Apoferritin bind: candidate novel general anesthetic via apoferritin binding; P02791; apoferritin/1-aminoanthracene competitive binding, fluorescence; Potency, µM (titrated, usually from 77.5 µM), for inactives: top-dose activity change, negative = displacement, usual class: inhibitors; 0.074% of 350,000 active; further: potency means the concentration at half of the fitted maximal effect; on the % scale 0 is the no-effect control and ±100 the full control effect; nearly all actives have a fitted effect of over 20% in size
#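 Steps: apoferritin (10 uM) was premixed with half-saturated 1-AMA in PBS, compounds were pin-transferred, plates stood 10 min at room temperature, fluorescence was read at 380/535 nm, and curves were fitted with a Hill equation.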
# BRCA1 expr act: activators of BRCA1 expression. MCF7-BRCA1-FFLuc reporter, luminescence, 48 h; response scale: scaled: vehicle 0%, 10 µM genistein 100%. Potency, µM (titrated, usually from 46.1 µM), inactives show top-dose activation, usual class: activators. 1.1% of 380,000 active; further: potency means the concentration at half of the fitted maximal effect; nearly all actives have a fitted effect of over 80% in size
#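 Compounds are tested at multiple concentrations on MCF7 BRCA1-luciferase reporter cells seeded at 2000 per well; after 48 h, a single luminescence end-point is taken and curves fitted to the normalized data.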
# miR-21 reporter: raises the signal of a miR-21 reporter | HeLa miR-21 FLuc reporter, luciferase, 48 h | Potency, µM (doses to about 38.3 µM), for the others: at the highest dose reporter change, positive = more light | 340,000 tested, under 10 active | AID 2288; active = well fitted rising curve with a large enough effect; inconclusive = small, poorly fitted or top-dose-only effect; inactive = no such curve, though single readings can be large or run the other way;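 also: % of control where 0% means no effect; miR-21 action dims this reporter so a rising signal means less miR-21 action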
#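 Using DMEM plus 10% FBS, HeLa miR-21-FLuc cells are incubated with test compounds (final up to about 40uM) for 48 hours; firefly luciferase signal is then imaged following reagent-mediated lysis.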
# p53 reactivation: restores transcriptional activity of mutant p53 | Potency, µM (top dose mostly 92.2 µM), for inactives: top-dose activity change, positive = activation, hits mostly activators | 0.063% of 320,000 active | H1299 p53-A138V BP100-luciferase reporter, luminescence, 24 h | AID 504706; further: potency means the concentration at half of the fitted maximal effect; % of control where 0% means no effect; nearly all actives have a fitted effect of over 45% in size
#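 H1299 (p53-null), stable ts p53-A138V + BP100-Luc; 1000 cells/well, Opti-MEM/10% FBS; cpd 4 pt, 1:5; 24 h, 37 deg C, 5% CO2; detection reagent 10 min RT; luminescence.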
# Active calls of the source: *; ? = inconclusive; . = no result. The call rests on the fitted dose curve; in most records, active means well fitted curve in the direction sought with a large enough effect; inconclusive means small, poorly fitted or top-dose-only effect, or another doubt; inactive means no such curve, though single readings can be large; an effect the other way counts as inactive or inconclusive.
# Letter code: A = Apoferritin bind; B = BRCA1 expr act; C = miR-21 reporter; D = p53 reactivation
O=C(N/N=C/c1ccccc1C(F)(F)F)c1ccc2nc[nH]c2c1
  A: -10.3%; B: 7.08µM*; C: -43.8%; D: 26.6%

CCCOc1cccc(C(=O)Nc2ccc3c(c2)OCCO3)c1
  A: -10.5%; B: 7.94µM*; C: -32.2%; D: 23.9%

O=C(Nc1ccc(C(F)(F)F)cc1)c1ccc2nc[nH]c2c1
  A: 0.9%; B: 8.3%; C: -30.8%; D: 5.6%

O=C(N/N=C/c1ccco1)c1ccc2nc[nH]c2c1
  A: 0.8%; B: 4.0%; C: -2.9%; D: 5.2%

O=C(Cn1cnc2ccccc2c1=O)c1ccc2c(c1)OCCO2
  A: -17.5%; B: ?; C: -35.8%; D: ?

COc1ccc(C(=O)Cn2cnc3ccccc3c2=O)cc1
  A: -6.8%; B: ?; C: -54.3%; D: ?

O=C(Cn1cnc2ccccc2c1=O)c1ccc2ccccc2c1
  A: ?; B: 6.31µM*; C: -68.3%; D: .

Cc1ccc(C(=O)Cn2cnc3ccccc3c2=O)cc1C
  A: ?; B: 4.47µM*; C: -55.8%; D: .

COc1cc2c(cc1OC)n(CC(=O)Nc1ccccc1)c(=O)n1nc(-c3ccccc3)nc21
  A: 1.5%; B: 0.0%; C: 2.9%; D: .

O=C(Nc1c(Cl)cc([N+](=O)[O-])cc1Cl)c1cc(Cl)cc(Cl)c1O
  A: .; B: -15.9%; C: .; D: .

COCCNC(=S)NNC(=O)c1cc(-c2cccnc2)nc2ccccc12
  A: -9.9%; B: -8.9%; C: 2.5%; D: 14.8%

CCOc1ccc(N(C(C)C(=O)NCCSc2ccc(Cl)cc2)S(C)(=O)=O)cc1 (stereo unspecified)
  A: 46.1%; B: -18.7%; C: 16.5%; D: .

CN(C)CCN1CC(O)=C(c2nc3ccccc3s2)C1=N
  A: 2.6%; B: -19.1%; C: -17.4%; D: 2.8%

N=C1C(c2nc3ccccc3s2)=C(O)CN1Cc1ccco1
  A: -9.4%; B: 7.08µM*; C: -58.1%; D: ?

OC[C@@H]1CN(CCN2CCOCC2)C[C@H](n2cnc3c(NCc4ccco4)ncnc32)O1
  A: .; B: 47.4%; C: .; D: .

Cc1cc(N2CCN(C)CC2)nc2ccc(NC(=O)c3ccc(C(C)(C)C)cc3)cc12
  A: 50.1%; B: .; C: 6.56µM*; D: .

Cc1noc(-c2ccc(N3CCC(C)CC3)c([N+](=O)[O-])c2)n1
  A: -13.8%; B: ?; C: -40.2%; D: .

CCc1noc(-c2ccc(N3CCCCC3)c([N+](=O)[O-])c2)n1
  A: -12.7%; B: 7.08µM*; C: -14.6%; D: .

CCc1noc(-c2ccc(N3CCC(C)CC3)c([N+](=O)[O-])c2)n1
  A: -19.7%; B: 8.91µM*; C: -18.1%; D: .

Cc1ccc(-c2noc(-c3ccc(N4CCCCC4)c([N+](=O)[O-])c3)n2)cc1
  A: -11.0%; B: -0.1%; C: -45.6%; D: .

Cc1cc(NC(=O)c2cccs2)ncc1NC(=O)C(C)C
  A: -15.3%; B: ?; C: -27.0%; D: .

Nc1[nH]ncc1N=Nc1ccc(Cl)cc1
  A: 31.6µM*; B: 11.2µM*; C: -36.4%; D: 3.0%

Cc1ccc(Cn2c(=O)n(-c3cccc(C(F)(F)F)c3)c(=O)c3c(C)c(C)sc32)c(C)c1
  A: -0.9%; B: .; C: -1.6%; D: .

Cc1nc(Nc2ccc(S(N)(=O)=O)cc2)sc1C(=O)Nc1ccccc1
  A: -11.7%; B: -26.8%; C: 10.3%; D: 1.6%

CC(=O)c1sc(N/N=C\c2ccc(Br)cc2)nc1C
  A: 3.7%; B: 3.55µM*; C: -83.8%; D: ?

# Quoted at random: 5 compounds from above.
# Letter code: A = Apoferritin bind; B = BRCA1 expr act; C = miR-21 reporter; D = p53 reactivation
Cc1cc(NC(=O)c2cccs2)ncc1NC(=O)C(C)C
  A: -15.3%; B: ?; C: -27.0%; D: .

COc1ccc(C(=O)Cn2cnc3ccccc3c2=O)cc1
  A: -6.8%; B: ?; C: -54.3%; D: ?

N=C1C(c2nc3ccccc3s2)=C(O)CN1Cc1ccco1
  A: -9.4%; B: 7.08µM*; C: -58.1%; D: ?

Cc1ccc(Cn2c(=O)n(-c3cccc(C(F)(F)F)c3)c(=O)c3c(C)c(C)sc32)c(C)c1
  A: -0.9%; B: .; C: -1.6%; D: .

CC(=O)c1sc(N/N=C\c2ccc(Br)cc2)nc1C
  A: 3.7%; B: 3.55µM*; C: -83.8%; D: ?

# The listing continues:
# Letter code: A = Apoferritin bind; B = BRCA1 expr act; C = miR-21 reporter; D = p53 reactivation
COc1ccc(Nc2nc(C)c(C(C)=O)s2)cc1
  A: .; B: 12.6µM*; C: .; D: .

Cc1nc(Nc2ccccc2)sc1C(=O)Nc1ccccc1
  A: 6.6%; B: 6.31µM*; C: -49.4%; D: 7.0%

CC1=C(C(=O)Nc2ccccc2)C(c2ccncc2)n2nc(SCc3ccccc3F)nc2N1 (stereo unspecified)
  A: 0.3%; B: 6.8%; C: 7.3%; D: .

COc1ccc(OC)c(NC(=O)c2cc(=O)c3c(C)cc(C)cc3o2)c1
  A: -0.5%; B: .; C: 3.0%; D: .

CC(=O)N(c1nnc(-c2ccc(C)cc2)s1)C1CCCC1
  A: ?; B: 11.2µM*; C: -56.5%; D: .

COc1cc(C)ccc1OCc1cc(C(=O)NCc2ccncc2)no1
  A: -20.7%; B: 7.94µM*; C: -49.9%; D: ?

COc1cc(C)ccc1OCc1cc(C(=O)NC(C)Cn2cncn2)no1 (stereo unspecified)
  A: -8.0%; B: 5.01µM*; C: -51.2%; D: -5.3%

COc1cc(C)ccc1OCc1cc(C(=O)N2CCCCCCC2)no1
  A: ?; B: ?; C: -36.7%; D: ?

Cc1cc(C(=O)O)ccc1-n1c(C)cc(/C=C2\SC(=O)NC2=O)c1C
  A: -4.0%; B: 15.7%; C: -15.9%; D: -18.0%

Cc1cc(/C=C2\SC(=S)NC2=O)c(C)n1-c1ccc(O)cc1
  A: -3.4%; B: 2.24µM*; C: -34.2%; D: ?

COC(=O)c1cccc(-n2c(C)cc(/C=C3\SC(=O)NC3=O)c2C)c1
  A: .; B: 10µM*; C: .; D: .

Clc1ccccc1OCc1nnc(-c2ccccc2Br)o1
  A: ?; B: 3.98µM*; C: -61.6%; D: ?

Clc1ccc(Cc2nnc(-c3ccccc3Br)o2)cc1
  A: -2.9%; B: 14.1µM*; C: -61.2%; D: 18.8%

CCOC(=O)N/N=C(\C)c1cccs1
  A: -15.9%; B: ?; C: -47.9%; D: 19.9%

C/C(=N\NC(=O)c1cccs1)c1c(O)cc(C)oc1=O
  A: -17.9%; B: 3.55µM*; C: -46.3%; D: 2.9%

C/C(=N\NC(=O)c1cc2ccccc2cc1O)c1cccs1
  A: -11.5%; B: 1.6%; C: -47.8%; D: ?

C=C(C)C1CC=C(C)C(=NNC(=O)c2ccncc2)C1 (stereo unspecified)
  A: .; B: -23.6%; C: .; D: .

C=C(C)C1CC=C(C)/C(=N/NC(=O)c2cccs2)C1 (stereo unspecified)
  A: -10.3%; B: 10µM*; C: -37.5%; D: ?

C/C(=N/NC(=O)c1cccs1)c1cccc(N)c1
  A: -3.9%; B: 11.2µM*; C: -56.2%; D: 6.7%

CC(=O)Nc1cccc(/C(C)=N/NC(=O)c2cccs2)c1
  A: -12.6%; B: ?; C: -58.9%; D: 17.5%

C/C(=N/NC(=O)c1cccs1)c1cccs1
  A: -17.6%; B: 3.55µM*; C: -74.7%; D: 13.0%

CC1=NN(C(C#N)c2ccc(F)cc2)C(c2ccccc2)C1 (stereo unspecified)
  A: -12.3%; B: -0.2%; C: -9.0%; D: -22.0%

O=C(COC(=O)c1ccc(S(=O)(=O)N2CCCC2)cc1)Nc1cccc(Cl)c1
  A: .; B: 5.8%; C: .; D: -2.9%

Nc1ccc(C23CC4CC(CC(C4)C2)C3)cc1
  A: 8.91µM*; B: -3.4%; C: -2.2%; D: -3.1%

Nc1ccc(C23CC4CC(CC(O)(C4)C2)C3)cc1
  A: 14.1µM*; B: 2.3%; C: -5.2%; D: 11.7%

# The listing continues.
# Letter code: A = Apoferritin bind; B = BRCA1 expr act; C = miR-21 reporter; D = p53 reactivation
O=C(CSc1nnc(NC2CCCCC2)s1)Nc1ccc2c(c1)C(=O)c1ccccc1C2=O
  A: -9.0%; B: 4.47µM*; C: -48.4%; D: 19.1%

CC(C)Nc1nnc(SCC(=O)Nc2ccc3c(c2)C(=O)c2ccccc2C3=O)s1
  A: -6.6%; B: ?; C: -23.6%; D: ?

Fc1ccccc1-c1ccc(/C=N/Nc2nc3ccccc3[nH]2)o1
  A: -6.2%; B: -34.1%; C: -19.1%; D: 35.5µM*

CCS(=O)(=O)c1ccc(O)c(NC(=O)/C=C/c2ccccc2)c1
  A: -7.7%; B: 12.6µM*; C: -41.8%; D: 8.3%

CN1OC[C@@H]2CN(Cc3ccc(Cl)cc3)[C@H](c3ccc(N4CCCCC4)cc3)C[C@@H]21
  A: .; B: -17.2%; C: .; D: .

CCOC(=O)c1ccc(NC(=O)C23CCC(C)(C(=O)O2)C3(C)C)cc1 (stereo unspecified)
  A: -18.7%; B: 10µM*; C: -39.0%; D: ?

CCOC(=O)c1ccc(NC(=S)N2CCC(O)CC2)cc1
  A: -4.8%; B: 12.6µM*; C: -41.1%; D: ?

CCOC(=O)c1ccc(NC(=O)c2ccc(NS(C)(=O)=O)cc2)cc1
  A: -10.9%; B: -7.1%; C: 0.0%; D: -8.9%

CCOC(=O)c1ccc(NC(=S)N2CCCC(C)C2)cc1 (stereo unspecified)
  A: ?; B: 58.0%; C: -24.8%; D: -0.9%
